Laboratory results reported in patent US4966914A, “Oculoselective beta-blockers as antiglaucoma agents” (E. I. Du Pont de Nemours and Company, priority 1988, dated 1990).

The chains behind the UniProt entries cited, without tags or fusion partners. Residues count along the entry.
UniProt H0W3H1, 1-470: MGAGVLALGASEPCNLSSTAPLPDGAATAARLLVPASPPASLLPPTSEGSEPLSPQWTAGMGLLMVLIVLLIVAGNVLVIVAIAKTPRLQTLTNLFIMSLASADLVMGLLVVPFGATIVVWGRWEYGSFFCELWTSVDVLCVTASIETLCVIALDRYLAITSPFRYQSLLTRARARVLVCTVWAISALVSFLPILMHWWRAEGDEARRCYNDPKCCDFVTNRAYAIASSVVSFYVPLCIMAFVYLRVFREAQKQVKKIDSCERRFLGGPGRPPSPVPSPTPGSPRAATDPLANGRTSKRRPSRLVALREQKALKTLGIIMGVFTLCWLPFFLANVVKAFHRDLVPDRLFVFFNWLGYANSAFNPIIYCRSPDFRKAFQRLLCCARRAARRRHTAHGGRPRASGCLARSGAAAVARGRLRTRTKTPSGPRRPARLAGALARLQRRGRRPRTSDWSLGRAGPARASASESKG

Biological target: ATRIA (Cavia porcellus, UniProt H0W3H1)
Test: In vitro potency (pA2), beta-blocking, atria
Settings: Table 3
Method: The in vitro potency (pA2), in vivo potency and duration of action (DOA) of the compounds of the present invention are recorded in Tables 2 to 4. These pharmacological activities were determined using the methods described in U.S. patent 4,582,855 issued Apr.

pA2 ATRIA: 6.1
Compound: Cc1cc(O)c(O)cc1C(=O)OCC(O)CNC(C)(C)CNC(=O)C12CC3CC(CC(C3)C1)C2 (stereo not shown)
